Assay results published in PubChem BioAssay AID1645855 (Buhrlage Lab, Dana-Farber Cancer Institute and Novartis …, 2021).
The list shows a part of the results, in another mix than the full data. The source made the active and inactive calls. Cut-off read from the data, not from the text of the source: active = inhibition above about 30%; inactive = the rest.

Sequences of proteins named here, by UniProt entry; tags and fusion partners are left off.
UniProt A8MUK1, whole entry: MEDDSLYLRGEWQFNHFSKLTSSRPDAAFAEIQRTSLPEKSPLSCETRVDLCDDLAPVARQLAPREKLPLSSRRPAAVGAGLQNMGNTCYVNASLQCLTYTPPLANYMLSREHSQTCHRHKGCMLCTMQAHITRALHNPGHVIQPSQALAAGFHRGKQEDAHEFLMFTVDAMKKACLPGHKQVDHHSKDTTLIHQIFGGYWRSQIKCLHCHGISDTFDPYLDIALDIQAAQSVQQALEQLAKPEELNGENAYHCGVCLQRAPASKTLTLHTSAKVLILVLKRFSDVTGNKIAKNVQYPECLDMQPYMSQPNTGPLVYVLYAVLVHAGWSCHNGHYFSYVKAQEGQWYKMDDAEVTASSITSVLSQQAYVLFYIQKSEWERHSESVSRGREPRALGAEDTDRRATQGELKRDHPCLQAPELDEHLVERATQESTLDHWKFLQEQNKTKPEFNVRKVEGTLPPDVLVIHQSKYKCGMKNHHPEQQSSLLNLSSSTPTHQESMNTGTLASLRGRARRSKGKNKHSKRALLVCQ

Each compound was assayed against Ubiquitin carboxyl-terminal hydrolase 17-like protein 5 (Homo sapiens) (UniProt A8MUK1) (assay: blocks human USP17 ubiquitin-rhodamine cleavage (AID 1645855)). Settings: purified USP17, Ub-rhodamine cleavage fluorescence, 3 h; at 50 µM; active compounds read high.

SMILES	inhibition
CN(C)c1ccc(C(=O)NCC2(N3CCCCC3)CCCCC2)cc1	inactive: -0.484%
N#Cc1ccc(C(=O)NCC2(N3CCCCC3)CCCCC2)cc1	inactive: -38.7%
Cc1cc(C(=O)NCC2(N3CCOCC3)CCCCC2)c2ccccc2n1	inactive: 12.9%
Cc1ccccc1C(=O)NCC1(N2CCOCC2)CCCCC1	inactive: -4.62%
O=C(NCC1(N2CCCCC2)CCCCC1)c1ccc2ncsc2c1	inactive: -1.39%
O=C(NCC1(N2CCOCC2)CCCCC1)c1ccccc1Cl	inactive: -25.3%
O=C(NCC1(N2CCCCC2)CCCCC1)c1ccc(F)cc1	inactive: -51.1%
CC1CN(CCc2ccccc2)CCC1=O (stereo not drawn)	inactive: -3.09%
